{
  "source": "paper PMC11744766",
  "about": "“Dual Inhibitors of SARS-CoV-2 3CL Protease and Human Cathepsin L Containing Glutamine Isosteres Are Anti-CoV-2 Agents” (Journal of the American Chemical Society, 2025)",
  "molecular_target": "SARS-CoV-2 3CL protease (3CL-PR) (Severe acute respiratory syndrome coronavirus 2, UniProt P0DTC1)",
  "experiment": "biochemical",
  "data": [
    {"smiles": "COc1cccc2[nH]c(C(=O)NC(CC(C)C)C(=O)NC(C=O)Cc3cccnc3)cc12", "note": "(stereo not shown) [Compound 7]", "values": [
      {"measurement": "Ki", "value": "6.2 ± 0.2", "unit": "µM"}
    ]}
  ]
}
